Literature values in PubChem BioAssay AID1811 (Shanghai Institute of Organic Chemistry, 2009).
This is one part of the list. Activity calls are given as the source filed them. Where no limit is named, active and inactive come without a cut-off here.

System: acetylcholine-binding protein
Experiment: PubChem AID 1811
Conditions: PDB complex binding affinities from literature

SMILES	outcome
CN1CCC[C@H]1c1cccnc1	active
CN1[C@@H](C[C@@H](O)c2ccccc2)CCC[C@H]1CC(=O)c1ccccc1	active
